Data published in patent US10844067B2, “Heterocyclic compounds as RET kinase inhibitors” (Cancer Research Technology Limited, priority 2016, dated 2020).

These molecules were tested on BaF3 cell lines expressing KDR (assay: BaF3 cell assay, KDR (CellTiter-Glo viability)). Conditions: Mus musculus, BaF3 cells expressing KDR, 48 hours.
Format: cell-based
With `Nc1ncnc2c1c(-c1cc3cccnc3[nH]1)nn2[C@H]1CC[C@H](NC(=O)C2CC2)CC1` [Example 36, N-(trans-4-(4-Amino-3-(1H-pyrrolo[2,3-b]pyridin-2-yl)-1H-pyrazolo[3,4-d]pyrimidin-1-yl)cyclohexyl)cyclopropanecarboxamide] the pIC50 was < 5.00.
`CC(C)(C)OC(=O)N[C@H]1CC[C@H](n2nc(-c3cc4cccnc4[nH]3)c3c(N)ncnc32)CC1` [Example 28, tert-Butyl (trans-4-(4-amino-3-(1H-pyrrolo[2,3-b]pyridin-2-yl)-1H-pyrazolo[3,4-d]pyrimidin-1-yl)cyclohexyl)carbamate] showed a pIC50 of 5.19.

Each molecule was assayed on Non-modified BaF3 cells (WT) (assay: BaF3 cell assay, non-modified (WT) cells with IL3). Conditions: Mus musculus, BaF3, 48 h, read-out: BaF3 IC50.
For `CC(C)(C)n1nc(-c2cc3ccc(C#N)cc3[nH]2)c2c(N)ncnc21` [Example 17, 2-(4-Amino-1-(tert-butyl)-1H-pyrazolo[3,4-d]pyrimidin-3-yl)-1H-indole-6-carbonitrile], the pIC50 was < 5.00.

Same assay, conditions: Mus musculus, BaF3, 48 h, read-out: BaF3 IC50, Non-modified BaF3 cells (WT) with IL3, 48 hours, CellTiter-Glo
In the case of `Nc1ncnc2c1c(-c1cc3cccnc3[nH]1)nn2[C@H]1CC[C@H](NC(=O)C2CC2)CC1` [Example 36, N-(trans-4-(4-Amino-3-(1H-pyrrolo[2,3-b]pyridin-2-yl)-1H-pyrazolo[3,4-d]pyrimidin-1-yl)cyclohexyl)cyclopropanecarboxamide], the pIC50 was 5.39.
Molecule `CC(C)(C)n1nc(-c2cc3ccccc3[nH]2)c2c(N)ncnc21` [Example 1, 1-(tert-Butyl)-3-(1H-indol-2-yl)-1H-pyrazolo[3,4-d]pyrimidin-4-amine] has a pIC50 of 5.66.
With `CC(C)(C)Cn1nc(-c2[nH]c3ncccc3c2Cl)c2c(N)ncnc21` [Example 81, 3-(3-Chloro-1H-pyrrolo[2,3-b]pyridin-2-yl)-1-neopentyl-1H-pyrazolo[3,4-d]pyrimidin-4-amine] the pIC50 was < 5.00.
In the case of `CC(C)(C)n1nc(-c2[nH]c3ccc(F)cc3c2Cl)c2c(N)ncnc21` [Example 83, 1-tert-Butyl-3-(3-chloro-5-fluoro-1H-indol-2-yl)pyrazolo[3,4-d]pyrimidin-4-amine], the pIC50 was < 5.00.
Molecule `CC(C)(C)n1nc(-c2[nH]c3ccccc3c2Br)c2c(N)ncnc21` [Example 49, 3-(3-Bromo-1H-indol-2-yl)-1-(tert-butyl)-1H-pyrazolo[3,4-d]pyrimidin-4-amine] has a pIC50 of 5.04.
In the case of `CC(C)(C)OC(=O)N[C@H]1CC[C@@H](n2nc(-c3[nH]c4ncccc4c3Cl)c3c(N)ncnc32)CC1` [Example 29, tert-Butyl N-[cis-4-(4-amino-3-{3-chloro-1H-pyrrolo[2,3-b]pyridin-2-yl}-1H-pyrazolo[3,4-d]pyrimidin-1-yl)cyclohexyl]carbamate], the pIC50 was < 5.00.
For `CC(C)n1nc(-c2[nH]c3ncccc3c2Cl)c2c(N)nccc21` [Example 33, 3-(3-Chloro-1H-pyrrolo[2,3-b]pyridin-2-yl)-1-isopropyl-1H-pyrazolo[4,3-c]pyridin-4-amine], the pIC50 was 5.14.
In the case of `CCC(C)n1nc(-c2[nH]c3ncccc3c2Cl)c2c(N)ncnc21` (stereo not shown) [Example 62, 1-(sec-Butyl)-3-(3-chloro-1H-pyrrolo[2,3-b]pyridin-2-yl)-1H-pyrazolo[3,4-d]pyrimidin-4-amine], the pIC50 was < 5.00.
With `CS(=O)(=O)N1CCC(n2nc(-c3[nH]c4ncccc4c3Cl)c3c(N)ncnc32)CC1` [Example 23, 3-{3-Chloro-1H-pyrrolo[2,3-b]pyridin-2-yl}-1-(1-methanesulfonylpiperidin-4-yl)-1H-pyrazolo[3,4-d]pyrimidin-4-amine] the pIC50 was < 5.00.
`Nc1ncnc2c1c(-c1cc3ccccc3[nH]1)nn2C1CCCCC1` [Example 39, 1-Cyclohexyl-3-(1H-indol-2-yl)pyrazolo[3,4-d]pyrimidin-4-amine] gave a pIC50 of 5.52.
In the case of `Cc1ccc2c(Cl)c(-c3nn(C(C)(C)C)c4ncnc(N)c34)[nH]c2c1` [Example 71, 1-tert-Butyl-3-(3-chloro-6-methyl-1H-indol-2-yl)pyrazolo[3,4-d]pyrimidin-4-amine], the pIC50 was < 5.00.
For `Nc1ncnc2c1c(-c1[nH]c3ncccc3c1Cl)nn2C1CCCC1` [Example 79, 3-(3-Chloro-1H-pyrrolo[2,3-b]pyridin-2-yl)-1-cyclopentyl-1H-pyrazolo[3,4-d]pyrimidin-4-amine], the pIC50 was < 5.00.
`CC(C)(C)n1nc(-c2cc3c(Cl)cccc3[nH]2)c2c(N)ncnc21` [Example 75, 1-tert-Butyl-3-(4-chloro-1H-indol-2-yl)pyrazolo[3,4-d]pyrimidin-4-amine] was tested, and the pIC50 was 5.27.
In the case of `CCn1nc(-c2[nH]c3ncccc3c2Cl)c2c(N)ncnc21` [Example 46, 3-(3-Chloro-1H-pyrrolo[2,3-b]pyridin-2-yl)-1-ethyl-pyrazolo[3,4-d]pyrimidin-4-amine], the pIC50 was < 5.00.
In the case of `Nc1ncnc2c1c(-c1[nH]c3ncccc3c1Cl)nn2C1CCC1` [Example 66, 3-(3-Chloro-1H-pyrrolo[2,3-b]pyridin-2-yl)-1-cyclobutyl-pyrazolo[3,4-d]pyrimidin-4-amine], the pIC50 was 5.67.
Molecule `CC(C)n1nc(-c2[nH]c3ccccc3c2Cl)c2c(N)nccc21` [Example 12, 3-(3-Chloro-1H-indol-2-yl)-1-(propan-2-yl)-1H-pyrazolo[4,3-c]pyridin-4-amine] has a pIC50 of 5.32.
With `CC(C)(C)n1nc(-c2[nH]c3ncccc3c2Br)c2c(N)ncnc21` [Example 34, 3-(3-bromo-1H-pyrrolo[2,3-b]pyridin-2-yl)-1-(tert-butyl)-1H-pyrazolo[3,4-d]pyrimidin-4-amine] the pIC50 was 5.44.
With `Nc1ncnc2c1c(-c1[nH]c3ncccc3c1Cl)nn2CC1CCCCO1` (stereo not shown) [Example 60, 3-(3-Chloro-1H-pyrrolo[2,3-b]pyridin-2-yl)-1-((tetrahydro-2H-pyran-2-yl)methyl)-1H-pyrazolo[3,4-d]pyrimidin-4-amine] the pIC50 was < 5.00.
`Nc1ncnc2c1c(-c1cc3ccccc3[nH]1)nn2[C@H]1CC[C@H](N2CCOCC2)CC1` [Example 6, 3-(1H-Indol-2-yl)-1-(trans-4-morpholinocyclohexyl)-1H-pyrazolo[3,4-d]pyrimidin-4-amine] was tested, and the pIC50 was 5.80.
`CC(C)n1cc(-c2cc3ccccc3[nH]2)c2c(N)ncnc21` [Example 47, 5-(1H-Indol-2-yl)-7-isopropyl-pyrrolo[2,3-d]pyrimidin-4-amine] was tested, and the pIC50 was 5.39.
`CC(C)(C)n1nc(-c2cc3ccc(C#N)nc3[nH]2)c2c(N)ncnc21` [Example 88, 2-(4-Amino-1-(tert-butyl)-1H-pyrazolo[3,4-d]pyrimidin-3-yl)-1H-pyrrolo[2,3-b]pyridine-6-carbonitrile] was tested, and the pIC50 was < 5.00.
`CCCn1nc(-c2[nH]c3ncccc3c2Cl)c2c(N)ncnc21` [Example 82, 3-(3-Chloro-1H-pyrrolo[2,3-b]pyridin-2-yl)-1-propyl-1H-pyrazolo[3,4-d]pyrimidin-4-amine] was tested, and the pIC50 was < 5.00.
With `CC(C)(C)OC(=O)N[C@H]1CC[C@@H](n2nc(-c3cc4cccnc4[nH]3)c3c(N)ncnc32)CC1` [Example 27, tert-Butyl N-[cis-4-(4-amino-3-{1H-pyrrolo[2,3-b]pyridin-2-yl}-1H-pyrazolo[3,4-d]pyrimidin-1-yl)cyclohexyl]carbamate] the pIC50 was 5.04.
For `Nc1ncnc2c1c(-c1[nH]c3ncccc3c1Cl)nn2CC(F)(F)F` [Example 61, 3-(3-Chloro-1H-pyrrolo[2,3-b]pyridin-2-yl)-1-(2,2,2-trifluoroethyl)-1H-pyrazolo[3,4-d]pyrimidin-4-amine], the pIC50 was < 5.00.
With `CC(C)n1nc(-c2[nH]c3cc(Br)ccc3c2Cl)c2c(N)ncnc21` [Example 16, 3-(6-Bromo-3-chloro-1H-indol-2-yl)-1-isopropyl-pyrazolo[3,4-d]pyrimidin-4-amine] the pIC50 was < 5.00.
With `Nc1ncnc2c1c(-c1[nH]c3ncccc3c1Cl)nn2C1CCOCC1` [Example 56, 3-(3-Chloro-1H-pyrrolo[2,3-b]pyridin-2-yl)-1-(tetrahydro-2H-pyran-4-yl)-1H-pyrazolo[3,4-d]pyrimidin-4-amine] the pIC50 was < 5.00.
`CC(C)(C)n1nc(-c2cc3ccc(Cl)cc3[nH]2)c2c(N)ncnc21` [Example 20, 1-(tert-Butyl)-3-(6-chloro-1H-indol-2-yl)-1H-pyrazolo[3,4-d]pyrimidin-4-amine] was tested, and the pIC50 was < 5.00.
`Nc1ncnc2c1c(-c1[nH]c3ccccc3c1Cl)nn2C1CCC(NC(=O)C2CC2)CC1` (stereo not drawn) [Example 8, N-[4-[trans-4-Amino-3-(3-chloro-1H-indol-2-yl)pyrazolo[3,4-d]pyrimidin-1-yl]cyclohexyl]cyclopropanecarboxamide] was tested, and the pIC50 was 5.04.
With `CC(C)n1nc(-c2cc3ccccc3[nH]2)c2c(N)nccc21` [Example 11, 3-(1H-Indol-2-yl)-1-(propan-2-yl)-1H-pyrazolo[4,3-c]pyridin-4-amine] the pIC50 was 5.20.
For `CC(C)(C)n1nc(-c2[nH]c3cc(CO)ccc3c2Cl)c2c(N)ncnc21` [Example 19, (2-(4-Amino-1-(tert-butyl)-1H-pyrazolo[3,4-d]pyrimidin-3-yl)-3-chloro-1H-indol-6-yl)methanol], the pIC50 was < 5.00.
`Nc1ncnc2c1c(-c1cc3cccnc3[nH]1)nn2C1CCC(O)C1` (stereo not shown) [Example 40, 3-[4-Amino-3-(1H-pyrrolo[2,3-b]pyridin-2-yl)pyrazolo[3,4-d]pyrimidin-1-yl]cyclopentanol] showed a pIC50 of 5.50.
With `Nc1ncnc2c1c(-c1[nH]c3ccccc3c1Cl)nn2CC1CCOCC1` [Example 85, 3-(3-Chloro-1H-indol-2-yl)-1-((tetrahydro-2H-pyran-4-yl)methyl)-1H-pyrazolo[3,4-d]pyrimidin-4-amine] the pIC50 was < 5.00.
In the case of `Nc1ncnc2c1c(-c1cc3ccccc3[nH]1)nn2[C@H]1CC[C@H](NC(=O)C2CC2)CC1` [Example 5, N-(trans-4-(4-Amino-3-(1H-indol-2-yl)-1H-pyrazolo[3,4-d]pyrimidin-1-yl)cyclohexyl)cyclopropanecarboxamide], the pIC50 was 6.10.
For `CN(C)Cc1ccc2c(Cl)c(-c3nn(C(C)(C)C)c4ncnc(N)c34)[nH]c2c1` [Example 72, 1-(tert-Butyl)-3-(3-chloro-6-((dimethylamino)methyl)-1H-indol-2-yl)-1H-pyrazolo[3,4-d]pyrimidin-4-amine], the pIC50 was 5.29.
In the case of `CC(C)n1nc(-c2[nH]c3ccccc3c2Cl)c2c(N)ncnc21` [Example 64, 3-(3-Chloro-1H-indol-2-yl)-1-isopropyl-pyrazolo[3,4-d]pyrimidin-4-amine], the pIC50 was < 5.00.
`CC(C)(C)n1nc(-c2[nH]c3ncc(Cl)cc3c2Cl)c2c(N)ncnc21` [Example 51, 1-(tert-Butyl)-3-(3,5-dichloro-1H-pyrrolo[2,3-b]pyridin-2-yl)-1H-pyrazolo[3,4-d]pyrimidin-4-amine] showed a pIC50 of 5.65.

Same assay, conditions: read-out: BaF3 IC50; Non-modified BaF3 cells (WT) with IL3, 48 hours, CellTiter-Glo
Molecule `CC(C)(C)OC(=O)N[C@H]1CC[C@H](n2nc(-c3cc4cccnc4[nH]3)c3c(N)ncnc32)CC1` [Example 28, tert-Butyl (trans-4-(4-amino-3-(1H-pyrrolo[2,3-b]pyridin-2-yl)-1H-pyrazolo[3,4-d]pyrimidin-1-yl)cyclohexyl)carbamate] has a pIC50 of 5.34.

pIC50: −log10 of the molar value.
